Usually IC50 stands for the midpoint of a concentration-inhibition curve.

Data set [1] deals with human lymphoblast RPMI 8402. The data set is described as follows: MTT-microtiter plate tetrazolinium cytotoxicity assay (Test B), RPMI 8402. It counts as cell-based. The protocol:
(§1) The cytotoxicity was determined using the MTT-microtiter plate tetrazolinium cytotoxicity assay (MTA) (See Chen A. Y. et al. Cancer Res. 1993, 53, 1332; Mosmann, T. J., J. Immunol. Methods 1983, 65, 55; and Carmichael, J. et al. Cancer Res. 1987, 47, 936). The human lymphoblast RPMI 8402 and its camptothecin-resistant variant cell line, CPT-K5 were provided by Dr. Toshiwo Andoh (Aichi Cancer Center Research Institute, Nagoya, Japan) (see Andoh, T.; Okada, K. “Drug resistance mechanisms of topoisomerase I drugs,” Adv. in Pharmacology 1994, 29B, 93. The cytotoxicity assay was performed using 96-well microtiter plates. Cells were grown in suspension at 37° C. in 5% CO2 and maintained by regular passage in RPMI medium supplemented with 10% heat-inactivated fetal bovine serum, L-glutamine (2 mM), penicillin (100 U/mL), and streptomycin (0.1 mg/mL). For determination of IC50, cells were exposed continuously with varying concentrations of drug and MTT assays were performed at the end of the fourth day.

The test system of data set [2] is camptothecin-resistant variant cell line, CPT-K5. The data set is described as follows: MTT-microtiter plate tetrazolinium cytotoxicity assay (Test B), CPT-K5. Type of data set: cell-based, human. How it is done: as §1

Regarding “2,3,8,9-Dimethylenedioxybenzo[i]phenanthridine [Compound 29]”, the IC50 in data set [1] came out at 15 µM; in data set [2] it was 20 µM.

The values above are taken from patent US6486167B1, “Heterocyclic cytotoxic agents” (Rutgers, The State University of New Jersey, priority 1997, dated 2002).
